Laboratory results taken from patent EP0151577B1, “NEW GLUCIDIC DERIVATIVES OF 5-HYDROXYTRYPTOPHANE, OBTENTION AND APPLICATION AS DRUGS” (priority 1983, dated 1984).

Columns and labels:
souris [1] = assay: Rotarod test
[2] = system: 5-HT (dans tout le cerveau); assay: Amount of serotonin (5-HT) in whole brain, spectrophotofluorometric; assay type: in vivo, souris; settings: 100 mg/kg i.p.
Source text: On a encore effectué des essais pour apprecier la quantite de serotonine (5-HT) libérée dans le cerveau lors de I'administration des produits de l'invention par comparaison aux résultats obtenus avec le 5-HTP. Les quantités de sérotonine ont été estimees par une méthode spectrophotofluorométrique, telle que décrite par Solomon et al. Biochem. Pharmacology 14, 831 (1965). Les résultats de ces essais sont rassemblés dans le Tableau 10 ci-après.
• * Chaque valeur représente la moyenne de quatre animaux d'experience (souris) • ** La concentration de 5-HT est exprimée par gramme de tissu frais (cerveau).

souris [3] = assay: Anti-stress activity: milk-induced leucocytosis; assay type: in vivo; settings: 100 mg/kg i.p.; 0,1 ml de lait s.c. before treatment; lait seulement 23866 ± 214
rat = assay: Anti-stress activity: restraint ulcer in the rat; assay type: in vivo; settings: 100 mg/kg i.p.
Source text: BONFILS, S., LIEFOOGHE, GK, ROSSI, G. and LAMBLING, A. L'ulcère de contrainte du Rat blanc. Modifications de la fréquence lesionnelle par différents precedes opératoires et pharmacodynamiques. C.R. Soc. Biol., 151, 1149, 1957.
BONFILS, S., ROSSI, G., LIEFOOGHE, G. and LAMBLING, A., Ulcère experimental de contrainte, I. Méthodes, fréquence des lesions, modifications par certains precedes techniques et pharmacologiques. Rev. franç. Etudes clin. biol., 4,146, 1959.

SMILES: N[C@@H](Cc1c[nH]c2ccc(O)cc12)C(=O)O [5-HTP, 5-hydroxytryptophane]
- Essai à la tige Rotarod: Défaut de coordination musculaire observé (Nbre de souris) (souris [1]; 50 mg/kg (ip), 15 min): 1/5
- Essai à la tige Rotarod: Défaut de coordination musculaire observé (Nbre de souris) (souris [1]; 50 mg/kg (ip), 30 min): 1/5
- Essai à la tige Rotarod: Défaut de coordination musculaire observé (Nbre de souris) (souris [1]; 50 mg/kg (ip), 60 min): 0/5
- Essai à la tige Rotarod: Défaut de coordination musculaire observé (Nbre de souris) (souris [1]; 100 mg/kg (ip), 15 min): 4/5
- Essai à la tige Rotarod: Défaut de coordination musculaire observé (Nbre de souris) (souris [1]; 100 mg/kg (ip), 30 min): 3/5
- Essai à la tige Rotarod: Défaut de coordination musculaire observé (Nbre de souris) (souris [1]; 100 mg/kg (ip), 60 min): 3/5
- Quantités de 5-HT (dans tout le cerveau) ([2]; 15 min., Solution Saline 60,0, mean of 4 souris): 187,5
- Quantités de 5-HT (dans tout le cerveau) ([2]; 30 min., par gramme de tissu frais, Solution Saline 107): 248,6
- Quantités de 5-HT (dans tout le cerveau) ([2]; 60 min., par gramme de tissu frais, Solution Saline 100): 150,9
- Effet sur la leu-cocytose induite par le lait Moyenne T.L.C./Cmm (souris [3]): 10100 ± 68 (10) /Cmm
- Effet anti-ulcère chez le rat (18 heures sous contrainte) Indice d'Ul-cération (rat; témoin 34): 30 (4)
- Effet anti-ulcère chez le rat (18 heures sous contrainte) % Ul-cération (rat; témoin 90): 100%
